The entries are a selection whose mix differs from that of the whole data set. Some tests of the compounds listed are not included; inactive here does not mean inactive elsewhere. The source made the active and inactive calls.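 How the source made its calls: active means inhibition above the mean inhibition of all tested compounds plus 3 SD, set per campaign (cut at about 40% in these data); inactive means the rest.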

Amino acid sequences for entries named in this document (tags omitted).
UniProt Q07820, whole entry: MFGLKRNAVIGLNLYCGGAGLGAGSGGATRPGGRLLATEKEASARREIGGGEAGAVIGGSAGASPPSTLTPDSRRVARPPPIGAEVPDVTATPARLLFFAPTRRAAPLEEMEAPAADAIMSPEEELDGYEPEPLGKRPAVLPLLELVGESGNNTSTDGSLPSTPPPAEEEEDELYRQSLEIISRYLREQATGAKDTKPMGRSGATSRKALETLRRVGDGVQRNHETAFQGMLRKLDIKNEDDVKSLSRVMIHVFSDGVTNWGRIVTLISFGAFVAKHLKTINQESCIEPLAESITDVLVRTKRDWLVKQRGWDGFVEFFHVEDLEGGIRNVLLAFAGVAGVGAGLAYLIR

Broadly, the inhibition is the change of the read-out against control, counted positive when it falls.

The target of the test is Induced myeloid leukemia cell differentiation protein Mcl-1 (Homo sapiens) (UniProt Q07820). The test is described as follows: inhibitors of MCL1 binding to BIM-BH3, primary screen, biochemical, fluorescence polarization (AID 2057).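 Further: 0% = DMSO wells and 100% = unlabeled Bim-BH3 peptide control; higher means more loss of mP so more displacement of Bim peptide.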 As to conditions: GST-MCL1 / FITC-Bim-BH3 fluorescence polarization; at 10.9 µM; stronger effect = higher value. In general terms: In fluorescence polarisation assays a small probe gives low polarisation when free and higher when bound to something large.
On to `Cc1ccccc1C(=O)NCC1(N2CCCCC2)CCCCC1`, for which the inhibition was inactive: -3.45%.

Consider `CN(C)C1CCCC1OC(=O)C(O)(c1ccccc1)c1ccccc1` (centres undefined), for which the inhibition was inactive: 1.43%.

As to `CN(C)c1ccc(C(=O)NCC2(N(C)C)CCCCC2)cc1`, the inhibition is inactive: 8.11%.

For the compound `COc1ccc(C(=O)NCC2(N(C)C)CCCCC2)cc1`, the inhibition was inactive: -4.5%.

Regarding `Cc1cc(C(=O)NCC2(N3CCCCC3)CCCCC2)ccc1[N+](=O)[O-]`, the inhibition was inactive: -1.33%.

Consider `CCN1CCCC(OC(=O)C2(O)c3ccccc3C=Cc3ccccc32)C1` (centres undefined), for which the inhibition is inactive: 11.4%.

With `O=C(NCC1(N2CCCCC2)CCCCC1)c1cccc(Br)c1`, the inhibition was inactive: 2.87%.

Consider `C=CCN1CCN(CCOC(=O)C(O)(c2ccccc2)c2ccccc2)CC1`, for which the inhibition is inactive: -0.97%.

`O=C(NCC1(N2CCCCC2)CCCCC1)c1cc(F)c(F)cc1Cl`: the inhibition is inactive: 1.72%.

`CN1[C@@H]2CC[C@H]1CC(OC(=O)C(O)(c1ccccc1)c1ccccc1)C2` (some centres undefined): the inhibition was inactive: 0.83%.

Take `O=C(NCC1(N2CCCCC2)CCCCC1)c1cc([N+](=O)[O-])ccc1Cl`: the inhibition was inactive: 4.72%.

For the compound `Cc1ccc(C(=O)NCC2(N3CCCCC3)CCCCC2)cc1`, the inhibition was inactive: -5.04%.

In the case of `CCN(CC)CC(C)C(C)OC(=O)C(O)(c1ccccc1)c1ccccc1` (centres undefined), the inhibition was inactive: -4.71%.

Take `COc1cc(SC)ccc1C(=O)NCC1(N(C)C)CCCCC1`: the inhibition is inactive: 8.3%.

`CC(C)N1C(=O)CC2(CCN(CCOC(=O)C(O)(c3ccccc3)c3ccccc3)CC2)C1=O`: the inhibition was inactive: 8.07%.

For `O=C(OC1CN2CCC1CC2)C(CO)(c1ccccc1)c1ccccc1` (centres undefined), the inhibition was inactive: -0.41%.

With `CC(C)Oc1ccc(C(=O)NCC2(N(C)C)CCCCC2)cc1`, the inhibition was inactive: -1.94%.

For `CN(C)c1cccc(C(=O)NCC2(N(C)C)CCCCC2)c1`, the inhibition is inactive: -0.06%.

In the case of `COc1ccc(Br)c(C(=O)NCC2(N3CCCCC3)CCCCC2)c1`, the inhibition was inactive: -2.99%.

As to `COc1cc(C(=O)NCC2(N(C)C)CCCCC2)c([N+](=O)[O-])cc1OC`, the inhibition is inactive: 5.18%.

Consider `CN(C)C1(CNC(=O)c2ccc(Br)cc2)CCCCC1`, for which the inhibition is inactive: -6.38%.

Regarding `O=C(NCC1(N2CCCCC2)CCCCC1)c1cccc(Cl)c1`, the inhibition was inactive: 2.46%.

`COc1cccc(C(=O)NCC2(N3CCCCC3)CCCCC2)c1`: the inhibition is inactive: -1.72%.

On to `COc1ccc(Cl)cc1C(=O)NCC1(N(C)C)CCCCC1`, for which the inhibition was inactive: 11.6%.
